# US7998736B2, “Adoptive immunotherapy with enhanced T lymphocyte survival” (The United States of America as represented by the …, priority 2004, dated 2011)
# Test system: CTLL-2 cells
# Experiment: CTLL-2 proliferation assay (3H-thymidine)
# Type: cell-based, mouse
# Settings: Sup-T1 supernatants or control cytokine, 24 h
# Experimental: CTLL-2 is a C57BL/6 mouse cytotoxic T lymphocyte clone used to assay for “T lymphocyte growth factor.” The cells can be stimulated to proliferate by IL-2 or IL-15. The CTLL-2 assay was used to determine whether IL-15 produced by transduced Sup-T1 cells was biologically active.
# CTLL-2 cells were grown in culture for 4 days and then harvested and washed twice in PBS and then plated into a 96-well plate, 5×10^3 cells/well. The CTLL-2 cells were incubated in the absence of cytokines for 4 hours. Supernatants from the transduced Sup-T1 cells were then added to the culture in serial dilutions. Positive controls (IL-2 and IL-15) were also added to other wells. The CTLL-2 cells were cultured for a total of 24 hours; during the final six hours ^3H-Thymidine was added to each well. The CTLL-2 cells were harvested to a filter and read on a β-counter.
substance,measurement,value
IL-2: exogenous IL-2 cytokine added to culture media,proliferation of CTLL-2,did proliferate
